{"source": "patent US20020055462A1", "about": "“Use” (priority 1999, published 2002)", "test_system": "IL-6 plus IL-6sR stimulated aromatase activity", "assay": "IL-6 plus IL-6sR stimulated aromatase activity in breast fibroblasts", "type": "cell-based, human", "procedure": "The experimental protocol used was as described in the legend to FIG. 1.\nFibroblasts were cultured as previously described (2). Briefly, they were cultured in Eagles' modified minimal essential medium containing Hepes buffer (20 mmol/l), 10% foetal calf serum (FCS) and supplements. Cells were routinely passaged 2-3 times after which replicate 25 cm^2 flasks were seeded with fibroblasts and grown to confluency.\nAt the end of the treatment period aromatase activity was measured in intact monolayers using [1β-^3H] androstenedione (15-30 Ci/mmol, NEN-Du Pont, Stevenage, Herts, UK) over a 3-20 h period (2, 3). The number of cells was measured by counting cell nuclei using a Coulter counter. Experiments were carried out in triplicate and results shown are representative of 2-3 investigations.", "note": "“Also recorded” adds a separate entry of the source.", "data": [{"compound": "COc1cc2c(cc1O)CC[C@@H]1[C@@H]2CC[C@]2(C)[C@@H](O)CC[C@@H]12", "note": "[2-meOE2, 2-methoxyoestradiol]", "values": [{"measurement": "inhibition of stimulation of aromatase activity by IL-6 plus its soluble receptor (in words)", "result": "antagonise; also recorded: inhibited"}]}]}
